These results are taken from ChEMBL document CHEMBL5335860, “Imidazole Bioisostere Activators of Endopeptidase Neurolysin with Enhanced Potency and Metabolic Stability” (ACS Med Chem Lett, 2024).

Chains of the proteins cited; added tags and fusions are not shown.
UniProt Q9BYT8, whole entry, looked up: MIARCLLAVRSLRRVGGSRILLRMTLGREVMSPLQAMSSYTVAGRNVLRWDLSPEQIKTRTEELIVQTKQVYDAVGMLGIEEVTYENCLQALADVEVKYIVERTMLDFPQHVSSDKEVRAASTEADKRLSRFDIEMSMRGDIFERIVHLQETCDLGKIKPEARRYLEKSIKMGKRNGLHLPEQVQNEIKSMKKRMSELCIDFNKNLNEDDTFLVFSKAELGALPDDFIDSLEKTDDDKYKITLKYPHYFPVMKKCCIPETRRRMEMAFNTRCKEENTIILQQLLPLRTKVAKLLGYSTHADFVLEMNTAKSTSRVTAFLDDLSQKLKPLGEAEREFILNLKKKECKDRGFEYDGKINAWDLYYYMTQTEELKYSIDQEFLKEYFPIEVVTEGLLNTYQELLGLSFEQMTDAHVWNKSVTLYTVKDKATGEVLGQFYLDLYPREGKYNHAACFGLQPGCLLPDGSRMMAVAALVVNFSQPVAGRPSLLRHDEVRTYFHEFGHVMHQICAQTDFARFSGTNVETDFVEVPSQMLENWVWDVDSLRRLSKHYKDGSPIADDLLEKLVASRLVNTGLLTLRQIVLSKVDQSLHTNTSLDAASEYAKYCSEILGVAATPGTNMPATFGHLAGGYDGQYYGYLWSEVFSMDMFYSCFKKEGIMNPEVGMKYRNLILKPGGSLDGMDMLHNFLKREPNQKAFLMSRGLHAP

Each structure is given as a SMILES string. Active and inactive are the calls of the source. The calls are words filed in the database; no cut-off is given here.

The assay deals with Neurolysin, mitochondrial (Homo sapiens, UniProt Q9BYT8). Briefly: Activation of Nln (unknown origin) using Mca-Pro-Leu-Gly-Pro-D-Lys(DNP)- OH as substrate preincubated for 10 mins followed by substrate addition measured for 20 mins by fluorescence based assay relative to control. Particulars: time 30.0 min.

A word on the Emax: it is the greatest response seen or fitted, relative to the assay's reference. For the compound `CC(C)[C@H](NC(=O)[C@@H](N)Cc1c[nH]cn1)C(=O)NCc1cccc2ccccc12`, the Emax result was “inactive”.
Same read-out and setting: under `N[C@@H](Cc1c[nH]cn1)C(=O)NCC(=O)c1ccc2ccccc2c1` stands “inactive”.
Turning to `N[C@@H](Cc1c[nH]cn1)C(=O)NCCc1ccc(F)cc1`, the maximal response (Emax) (filed as activator) is 254%.
Take `N[C@@H](Cc1c[nH]cn1)C(=O)N[C@@H](Cc1ccccc1)C(=O)NCc1cccc2ccccc12`: the Emax entry is “inactive”.
